Data from patent publication US20060183773A1, “Uses of methylphenidate derivatives” (priority 2005, published 2006).

Tested on: IL-8
Experiment: IL-8 release by TNFα-stimulated HUVECs, ELISA
Assay type: cell-based, human
Conditions: 10 ng/ml TNFα + 10 μM; 18 hours; TNFα + water 35572
Procedure: Passage 4 HUVECs, human source lot number 8710 (obtained from ATCC), were put into the wells of a 24-well tissue culture plate at 5,000 cells/well in EGM-2 medium (obtained from Cambrex) and cultured for 72 hours at 37° C. and 5% CO2. […] After incubation for 1 hour at 37° C. and 5% CO2, TNFα (obtained from Pierce) was added to give a final concentration of 10 ng/ml, and the cells were incubated for an additional 18 hours at 37° C. and 5% CO2. After this incubation, the supernatants were collected, and the amount of IL-8 in the supernatants determined by ELISA as described in Example 4.

Compound: C[C@@H]1C[C@H]2[C@@H]3CCC4=CC(=O)C=C[C@]4(C)[C@@]3(F)[C@@H](O)C[C@]2(C)[C@@]1(O)C(=O)CO [dexamethasone, reference compound]
- Mean IL-8: 35952 ± 2197.14 pg/mL
